ChEMBL document CHEMBL5149996, “Structure-Based Optimization and Discovery of M3258, a Specific Inhibitor of the Immunoproteasome Subunit LMP7 (β5i)” (J Med Chem, 2021)

Chains of the proteins cited; added tags and fusions are not shown. Lines headed by an entry give the natural chain unless they say otherwise; changes in a name come on top.
UniProt P28074: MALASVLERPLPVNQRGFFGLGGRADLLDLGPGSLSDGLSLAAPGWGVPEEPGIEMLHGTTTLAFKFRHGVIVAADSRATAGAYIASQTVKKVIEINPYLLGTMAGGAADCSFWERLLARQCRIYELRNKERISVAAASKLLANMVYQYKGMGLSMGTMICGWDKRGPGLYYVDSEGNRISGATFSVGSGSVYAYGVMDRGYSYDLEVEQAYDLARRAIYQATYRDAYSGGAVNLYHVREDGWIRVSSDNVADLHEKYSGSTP

Biological target: Proteasome Macropain subunit MB1 (Homo sapiens, UniProt P28074)
Test: Inhibition of human 20S proteasome beta5 subunit using Suc-LLVY-AMC as substrate preincubated for 2 hrs followed by substrate addition and measured after 1 hr by fluorescence intensity assay

## CC(C)C[C@H](NC(=O)CNC(=O)c1cc(Cl)ccc1Cl)B(O)O
  IC50: 5 nM
